This is an account of results in patent publication US9701672B2, “Dihydropyridinone MGAT2 inhibitors for use in the treatment of metabolic disorders” (BRISTOL-MYERS SQUIBB COMPANY, priority 2014, dated 2017).

Protein sequences, listed by entry. Tags and fused reporters are not part of them.
UniProt Q3SYC2, whole entry: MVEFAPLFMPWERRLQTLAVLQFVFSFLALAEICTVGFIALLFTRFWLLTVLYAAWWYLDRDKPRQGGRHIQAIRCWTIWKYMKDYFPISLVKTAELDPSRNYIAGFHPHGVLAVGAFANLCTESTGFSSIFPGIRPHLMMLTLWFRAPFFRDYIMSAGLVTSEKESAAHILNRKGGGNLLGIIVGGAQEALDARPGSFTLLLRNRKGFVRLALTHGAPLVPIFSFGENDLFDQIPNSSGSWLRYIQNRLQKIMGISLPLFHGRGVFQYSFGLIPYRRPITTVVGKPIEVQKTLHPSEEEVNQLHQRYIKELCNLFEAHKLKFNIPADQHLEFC

The target in the test is human MGAT-2 (Homo sapiens (Human), UniProt Q3SYC2). Description: MGAT LCMS assay (h-MGAT LCMS). The note with it: read-out: h-MGAT LCMS IC50; human MGAT2 membranes expressed in Sf9 cells; 100 μM 2-oleoylglycerol, 15 μM oleoyl-coenzyme A. It is filed as biochemical.

As a reminder, the IC50 is the concentration that inhibits the measured activity by half. For `O=C1N[C@@](c2cnn(CCCCCC(F)(F)F)c2)(C(F)(F)F)CC(c2ccc(C3CC3)s2)=C1c1nnn[nH]1`, the IC50 turned out to be 7.8 nM.

With `O=C1N[C@@](c2ccc(OCCCCCC(F)(F)F)cc2)(C(F)(F)F)CC(c2ccc(C3CC3)s2)=C1c1nnn[nH]1`, the IC50 was 1.5 nM.

Turning to `O=C1N[C@@](c2ccc(OCCCCCC(F)(F)F)cc2F)(C(F)(F)F)CC(c2ccc(C3CC3)s2)=C1c1nnn[nH]1`, the IC50 was 0.9 nM.
